molecular target: JAK2 (Homo sapiens (Human), UniProt O60674); assay: Jak biochemical HTRF assay, JAK2; conditions: recombinant GST-tagged catalytic domain
Protocol: Jak Biochemical HTRF Assay Protocol
The ability of compounds to inhibit the activity of JAK1, JAK2, JAK3, and Tyk2 was measured using a recombinant purified GST-tagged catalytic domain for each enzyme (Invitrogen JAK1 #M4290, JAK2 #M4290, JAK3 #M4290, Tyk2 #M4290) in an HTRF format biochemical assay. […] The basic assay protocol is as follows: First, 250 nL of diluted compounds in DMSO were dispensed into the wells of a dry 384-well Black plate (Greiner #781076) using a Labcyte Echo 555 acoustic dispenser. Subsequent reagent additions employed an Agilent Bravo. […] After equilibration, 2 μL of 10×ATP in 1× assay buffer was added to initiate the kinase reaction and the plates were shaken and then incubated at room temperature for 120 minutes. […] Plates were shaken and centrifuged and then incubated 60 minutes at room temperature and then read on a Perkin Elmer Envision (λex=337 nm, λem=665 and 615 nm, TRF delay time=20 μs). HTRF signal=10,000*665 nm reading/615 nm reading. After normalization to untreated controls, the percent inhibition of the HTRF signal at each compound concentration was calculated. The plot of percent inhibition versus the log of compound concentration was fit with a 4-parameter dose response equation to calculate IC50 values.
Final Reaction Conditions were:
Examples of the instant invention were evaluated in JAK1 and JAK2 in vitro binding assays.

By UniProt entry, the sequences of proteins in these tests, tags left out. Residues count along the entry.
UniProt O60674, 849-1124: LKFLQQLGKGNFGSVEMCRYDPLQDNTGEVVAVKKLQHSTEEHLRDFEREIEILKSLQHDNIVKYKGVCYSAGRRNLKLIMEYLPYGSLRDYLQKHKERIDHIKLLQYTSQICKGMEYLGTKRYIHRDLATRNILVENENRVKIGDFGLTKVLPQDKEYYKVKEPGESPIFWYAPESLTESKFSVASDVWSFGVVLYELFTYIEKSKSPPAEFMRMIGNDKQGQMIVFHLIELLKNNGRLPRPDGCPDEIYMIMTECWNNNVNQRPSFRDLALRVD

Going from `CC(C)C(c1ccc(Nc2nn([C@H]3CCCC[C@@H]3C#N)c3cc[nH]c(=O)c23)cc1)n1nccn1` (single isomer, unassigned) [Example 15-31, (1S,2S)-2-[3-({4-[(1R or 1S)-2-methyl-1-(2H-1,2,3-triazol-2-yl)propyl]phenyl}amino)-4-oxo-4,5-dihydro-1H-pyrazolo[4,3-c]pyridin-1-yl]cyclohexanecarbonitrile] to `CC(c1ccc(Nc2nn([C@H]3CCCC[C@@H]3C#N)c3cc[nH]c(=O)c23)cc1)n1ccnn1` (single isomer, unassigned) [Example 15-41, (1S,2S)-2-[4-oxo-3-({4-[(1R or 1S)-1-(1H-1,2,3-triazol-1-yl)ethyl]phenyl}amino)-4,5-dihydro-1H-pyrazolo[4,3-c]pyridin-1-yl]cyclohexanecarbonitrile], the IC50 rises from 0.27 nM to 0.72 nM (2.7-fold).

Going from `CC(c1ccc(Nc2nn([C@H]3CCCC[C@@H]3C#N)c3cc[nH]c(=O)c23)cc1)n1ccnn1` (single isomer, unassigned) [Example 15-42, (1S,2S)-2-[4-oxo-3-({4-[(1S or 1R)-1-(1H-1,2,3-triazol-1-yl)ethyl]phenyl}amino)-4,5-dihydro-1H-pyrazolo[4,3-c]pyridin-1-yl]cyclohexanecarbonitrile] to `N#C[C@H]1CCCC[C@@H]1n1nc(Nc2ccc(C3(C(F)(F)F)CCCN3)cc2)c2c(=O)[nH]ccc21` (single isomer, unassigned) [Example 15-61, (1S,2S)-2-[4-oxo-3-({4-[(2R or 2S)-2-(trifluoromethyl)pyrrolidin-2-yl]phenyl}amino)-4,5-dihydro-1H-pyrazolo[4,3-c]pyridin-1-yl]cyclohexanecarbonitrile], the IC50 falls from 0.53 nM to 0.21 nM (2.5-fold). The second is the more potent here.

Compared with `N#C[C@@H]1CCCCC[C@H]1n1nc(Nc2ccc3c(c2)CN(C(=O)N2CCCCC2)C3)c2c(=O)[nH]ccc21` (single isomer, unassigned) [Example 15-53, (1R,2R or 1S,2S)-2-(4-oxo-3-{[2-(piperidin-1-ylcarbonyl)-2,3-dihydro-1H-isoindol-5-yl]amino}-4,5-dihydro-1H-pyrazolo[4,3-c]pyridin-1-yl)cycloheptanecarbonitrile], `N#C[C@H]1CCCCC[C@@H]1n1nc(Nc2ccc(C3(C(F)(F)F)CCCCN3)cc2)c2c(=O)[nH]ccc21` (single isomer, unassigned) [Example 15-69, (1S,2S or 1R,2R)-2-[4-oxo-3-({4-[(2S or 2R)-2-(trifluoromethyl)piperidin-2-yl]phenyl}amino)-4,5-dihydro-1H-pyrazolo[4,3-c]pyridin-1-yl]cycloheptanecarbonitrile] is 3.2-fold lower in IC50: 1.1 nM for the first, 0.34 nM for the second.

Compared with `N#C[C@H]1CCCC[C@@H]1n1nc(Nc2ccc(C3(C(F)(F)F)CCCN3)cc2)c2c(=O)[nH]ccc21` (single isomer, unassigned) [Example 15-62, (1S,2S)-2-[4-oxo-3-({4-[(2S or 2R)-2-(trifluoromethyl)pyrrolidin-2-yl]phenyl}amino)-4,5-dihydro-1H-pyrazolo[4,3-c]pyridin-1-yl]cyclohexanecarbonitrile], `N#C[C@H]1CCC[C@@H]1n1nc(Nc2ccc(C3(C(F)(F)F)CCCCN3)cc2)c2c(=O)[nH]ccc21` (single isomer, unassigned) [Example 15-71, (1S,2S)-2-[4-oxo-3-({4-[(2S or 2R)-2-(trifluoromethyl)piperidin-2-yl]phenyl}amino)-4,5-dihydro-1H-pyrazolo[4,3-c]pyridin-1-yl]cyclopentanecarbonitrile] is 4-fold lower in IC50: 0.34 nM for the first, 0.085 nM for the second.

With `N#C[C@H]1CCCCC[C@@H]1n1nc(Nc2ccc(C3(C(F)(F)F)CCCCN3)cc2)c2c(=O)[nH]ccc21` (single isomer, unassigned) [Example 15-70, (1S,2S or 1R,2R)-2-[4-oxo-3-({4-[(2R or 2S)-2-(trifluoromethyl)piperidin-2-yl]phenyl}amino)-4,5-dihydro-1H-pyrazolo[4,3-c]pyridin-1-yl]cycloheptanecarbonitrile] the IC50 was 0.4 nM.

Reference: patent US9725445B2, “Cycloalkyl nitrile pyrazolo pyridones as Janus kinase inhibitors” (Merck Sharp & Dohme Corp., priority 2013, dated 2017)
